US10807970B2 (priority 2016, dated 2020)

Sequences of proteins named here, by UniProt entry; tags and fusion partners are left off.
UniProt Q99720, whole entry: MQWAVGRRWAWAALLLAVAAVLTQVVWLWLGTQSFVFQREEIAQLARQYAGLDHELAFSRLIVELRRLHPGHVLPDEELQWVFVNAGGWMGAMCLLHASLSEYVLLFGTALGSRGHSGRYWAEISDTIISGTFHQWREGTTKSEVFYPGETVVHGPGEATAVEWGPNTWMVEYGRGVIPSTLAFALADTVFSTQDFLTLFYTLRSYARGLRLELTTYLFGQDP

Target: human σ1 receptor (Homo sapiens, UniProt Q99720)
Test: Human σ1 receptor radioligand assay ([3H](+)-pentazocine, transfected HEK-293 membranes)
Settings: read-out: μ and σ1 dual binding; one class symbol for both Ki-σ1 (human σ1 receptor, A1) and Ki-μ (human μ-opioid receptor, A2)
Description: Human σ1 Receptor Radioligand Assay
To investigate binding properties of test compounds to human σ1 receptor, transfected HEK-293 membranes and [^3H](+)-pentazocine (Perkin Elmer, NET-1056), as the radioligand, were used. The assay was carried out with 7 μg of membrane suspension, 5 nM of [^3H](+)-pentazocine in either absence or presence of either buffer or 10 μM Haloperidol for total and non-specific binding, respectively. Binding buffer contained Tris-HCl 50 mM at pH 8. Plates were incubated at 37° C. for 120 minutes. After the incubation period, the reaction mix was then transferred to MultiScreen HTS, FC plates (Millipore), filtered and plates were washed 3 times with ice-cold 10 mM Tris-HCL (pH7.4). Filters were dried and counted at approximately 40% efficiency in a MicroBeta scintillation counter (Perkin-Elmer) using EcoScint liquid scintillation cocktail

O=C(c1ccccn1)C1(N2CCN(Cc3ccccc3)CC2)CCOC2(CCCC2)C1 (stereo not shown)
Ki: < 100 nM
